The target in this experiment is T1, Flag-USP10-U1 ([…]aa) from HEK293T cells.
T1 construct: USP10, […] (Flag-USP10-U1, plasmid from Gene Chem / Gene-Pharma); The results name HEK293FT cells, the legend and methods HEK293T cells; also called FLAG-tagged USP10; source: HEK293T, transfected: purified (pull-down) and in lysate (co-IP)
Kind of experiment: pull-down; purified Flag-USP10 incubated with separately purified HA-GSK3β (both from HEK293T cells) at 4 °C with rotation overnight; beads rinsed four times with RIPA buffer; beads probed with anti-Flag antibody. As to conditions: both partners purified.

B1: HA-GSK3β-G1 (1-420aa) from HEK293T cells (enzyme, UniProt P49841 1-420, looked up)
chain: MSGRPRTTSFAESCKPVQQPSAFGSMKVSRDKDGSKVTTVVATPGQGPDRPQEVSYTDTKVIGNGSFGVVYQAKLCDSGELVAIKKVLQDKRFKNRELQIMRKLDHCNIVRLRYFFYSSGEKKDEVYLNLVLDYVPETVYRVARHYSRAKQTLPVIYVKLYMYQLFRSLAYIHSFGICHRDIKPQNLLLDPDTAVLKLCDFGSAKQLVRGEPNVSYICSRYYRAPELIFGATDYTSSIDVWSAGCVLAELLLGQPIFPGDSGVDQLVEIIKVLGTPTREQIREMNPNYTEFKFPQIKAHPWTKVFRPRTPPEAIALCSRLLEYTPTARLTPLEACAHSFFDELRDPNVKLPNGRDTPALFNFTTQELSSNPPLATILIPPHARIQAAASTPTNATAASDANTGDRGQTNNAASASASNST
notes: GSK3β, residues 1-420 (HA-GSK3β-G1, plasmid from Gene Chem / Gene-Pharma); The results name HEK293FT cells, the legend and methods HEK293T cells; also called HA-tagged GSK3β; source: HEK293T, transfected: purified (pull-down) and in lysate (co-IP)
For the molecule B1, the binding result was “binds”.

The values above are taken from publication PMC11367994, “Deubiquitinase USP10 promotes osteosarcoma autophagy and progression through regulating GSK3β-ULK1 axis” (Cell & Bioscience, 2024).
